Results from paper PMC12467390 (ACS infectious diseases, 2025).

Chains of the proteins cited; added tags and fusions are not shown. Lines headed by an entry give the natural chain unless they say otherwise; changes in a name come on top.
UniProt A0A059WYP6: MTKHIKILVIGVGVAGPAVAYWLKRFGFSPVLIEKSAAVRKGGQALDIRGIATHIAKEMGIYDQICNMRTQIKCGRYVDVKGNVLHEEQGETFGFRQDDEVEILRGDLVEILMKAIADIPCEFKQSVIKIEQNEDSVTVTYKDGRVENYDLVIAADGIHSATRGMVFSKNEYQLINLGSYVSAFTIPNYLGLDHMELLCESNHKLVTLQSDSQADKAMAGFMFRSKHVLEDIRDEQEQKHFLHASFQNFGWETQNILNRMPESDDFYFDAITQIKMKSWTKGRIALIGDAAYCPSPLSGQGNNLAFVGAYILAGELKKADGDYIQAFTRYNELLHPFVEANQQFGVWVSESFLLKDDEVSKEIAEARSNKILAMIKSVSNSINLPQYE

Biological target: Tet50 (Unknown prokaryotic organism, UniProt A0A059WYP6)
Test: Steady-state TC consumption assay
Assay type: biochemical
Conditions: blue light irradiation

Cc1c2c(c(O)c3c(O)cccc13)C(=O)[C@]1(O)C(=O)C(C(N)=O)=C(O)[C@@H](N(C)C)[C@@H]1C2 [aTC, anhydrotetracycline]
Apparent decay constant of IC50 versus pre-incubation time: 0.6 ± 0.2 min⁻¹
